# Results reported in patent US9809583B2 (priority 2014, dated 2017).
# Sequences of proteins named here, by UniProt entry; tags and fusion partners are left off. A change or cut given only in a name is not applied to a line headed by its entry.
# UniProt P10275: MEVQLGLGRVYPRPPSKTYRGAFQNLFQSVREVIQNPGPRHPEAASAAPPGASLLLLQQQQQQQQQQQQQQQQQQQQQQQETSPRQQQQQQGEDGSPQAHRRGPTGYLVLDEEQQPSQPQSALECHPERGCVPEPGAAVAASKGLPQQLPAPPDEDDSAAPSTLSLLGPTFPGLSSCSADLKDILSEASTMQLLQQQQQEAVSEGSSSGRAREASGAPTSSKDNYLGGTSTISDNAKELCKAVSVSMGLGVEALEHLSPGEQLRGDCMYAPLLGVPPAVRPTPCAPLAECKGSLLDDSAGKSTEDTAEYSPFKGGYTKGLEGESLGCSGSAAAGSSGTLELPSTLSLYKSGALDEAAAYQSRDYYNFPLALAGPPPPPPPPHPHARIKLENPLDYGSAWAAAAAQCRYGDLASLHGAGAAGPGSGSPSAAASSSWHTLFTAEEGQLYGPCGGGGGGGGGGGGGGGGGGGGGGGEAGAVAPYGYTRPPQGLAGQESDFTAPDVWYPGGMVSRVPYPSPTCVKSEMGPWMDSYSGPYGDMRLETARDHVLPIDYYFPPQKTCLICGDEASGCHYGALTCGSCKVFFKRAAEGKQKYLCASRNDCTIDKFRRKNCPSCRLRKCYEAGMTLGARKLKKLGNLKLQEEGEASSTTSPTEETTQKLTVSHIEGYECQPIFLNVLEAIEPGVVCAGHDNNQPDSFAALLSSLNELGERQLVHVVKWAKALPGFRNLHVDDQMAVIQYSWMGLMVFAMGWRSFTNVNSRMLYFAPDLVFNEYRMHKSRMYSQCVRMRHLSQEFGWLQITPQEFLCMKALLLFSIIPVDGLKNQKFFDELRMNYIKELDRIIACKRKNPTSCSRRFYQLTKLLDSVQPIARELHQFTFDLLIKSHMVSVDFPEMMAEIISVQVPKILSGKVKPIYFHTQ
# Biological target: androgen receptor (hAR) (Homo sapiens (Human), UniProt P10275)
# Format: binding
# Conditions: 1 nM [3H]MIB, hAR-transfected COS-7 cells, 2 hours; read-out: IC50 [nM] (mean ± SE)
# Description: In order to examine binding ability of the agonists of the present invention to androgen receptors, the following in-vitro experiment was performed. African green monkey kidney fibroblast-like cell line, COS-7 (ATCC, #CRL-1651) was seeded in a 48-well plate at a density of 2.5×10^4 cells/well, and cultured for 24 hours. Then, a plasmid hAR-mixed medium was added thereto. The transfected cell line was treated with 1 nM of [3H]MIB and 0.1˜10,000 nM of SARM derivatives, and then allowed to react for 2 hours. Thereafter, the cells were lysed and the amount of [3H]MIB bound to the intracellular androgen receptors was measured using a radiation dosimeter. The results were shown in Table 4 as 50% inhibition concentration (IC50) relative to that of an untreated control group.
compound,measurement,value
"N#Cc1ccc(N2C[C@@H](CO)O[C@@H]2C(F)(F)F)cc1C(F)(F)F [Example 1, 4-((2R,5S)-5-(hydroxymethyl)-2-(trifluoromethyl)oxazolidin-3-yl)-2-(trifluoromethyl)benzonitrile]",IC50,64.4 nM
